Earlier results as cited in patent publication US6916783B2, “Methods for accelerating bone and cartilage growth and repair” (University of Southern California, priority 1998, dated 2005).

Target: T1, AT2 receptor (Homo sapiens, UniProt P50052)
T1 sequence (P50052 1-363): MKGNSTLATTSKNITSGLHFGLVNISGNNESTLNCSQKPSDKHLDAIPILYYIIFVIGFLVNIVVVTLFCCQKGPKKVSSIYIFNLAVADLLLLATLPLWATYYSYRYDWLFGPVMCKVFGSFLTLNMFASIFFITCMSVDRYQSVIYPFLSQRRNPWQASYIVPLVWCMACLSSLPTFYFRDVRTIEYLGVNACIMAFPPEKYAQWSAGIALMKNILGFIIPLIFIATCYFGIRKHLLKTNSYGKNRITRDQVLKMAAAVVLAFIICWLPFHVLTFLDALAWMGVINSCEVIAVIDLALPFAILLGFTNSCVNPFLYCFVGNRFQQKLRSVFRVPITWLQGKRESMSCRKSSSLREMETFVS
Settings: experimental models tested (Catalioto 1994; Bryson 1992); cited from earlier work

## Asp-Arg-Val-Tyr-Ile-Xaa-Pro-Phe [(p-NH2-Phe)6-AII]
  binding characteristics: comparable to AT2 antagonists
